# Laboratory results from patent US10100282B2, “Differentiation of pluripotent cells” (FUJIFILM Cellular Dynamics, Inc., priority 2009, dated 2018).
# Test system: hESCs
# Test: Cytokine matrix: serum-free EB hematopoietic differentiation, surface markers by flow cytometry
# Assay type: cell-based, human
# Experimental: Cells were collected from each well/condition and washed once with media. The cell pellet was digested using TrypLE™ or 0.5% trypsin for 5-10 minutes in a 37° C. incubator followed by washes with media and passage through a 70-μm cell strainer. […] Non-viable cells were excluded with 7-aminoactinomycin D (7-AAD, BD Biosciences). Live cell analysis was performed on a FACSCalibur™ or Accuri flow cytometer and Cell Quest software. hESCs adapted to feeder free growth on matrigel maintained using mTESR were preconditioned for three days in the presence of X-vivo-15 containing 0.1 ng/ml TGF-β and 20 ng/ml FGF-2. Cells were harvested using TrypLE for 6 minutes at 37 C. TrypLE™ was neutralized using EB basal media containing 1 μM ROCK inhibitor (H-1152), Soybean trypsin inhibitor (0.25 mg/ml). The cells were washed once in EB basal media containing 1 μM ROCK inhibitor and soybean trypsin inhibitor (0.25 mg/ml). The cells were plated in low attachment plates in EB basal media containing 1 μM ROCK inhibitor and soybean trypsin inhibitor (0.25 mg/ml). The media was changed the next day to EB basal media containing different cytokine formulations. The concentration of cytokines used is as follows: 25 ng/ml BMP-4, 25 ng/ml VEGF, 25 ng/ml SCF, 25 ng/ml Flt-3L, 10 ng/ml IL-3, 10 ng/ml IL-6, 20 ng/ml G-CSF; 20 ng/ml GM-CSF, 0.2 U/ml EPO, 10 ng/ml TPO and 10 ng/ml zebrafish FGF-2. The cytokine combinations used are listed below in Table 3. The EB cultures were half fed with fresh differentiation media every two days. The EB cultures were harvested on day 8, 12 and 17 of differentiation. The EB cultures were harvested by spinning down all the cells and digesting the EBs with TrypLE™ or 0.5% trypsin. The phenotype of the progenitor cell types was analyzed by flow cytometry and the cells were plated in methylcellulose media for CFU assays. “FLT3” refers to the Flt3 ligand below.
molecule,measurement,setting,value
"IL3: Interleukin-3, a hematopoietic growth factor (protein, UniProt P08700 20-152, looked up) Interleukin-3: APMTQTTPLKTSWVNCSNMIDEIITHLKQPPLPLLDFNNLNGEDQDILMENNLRRPNLEAFNRAVKSLQNASAIESILKNLLPCLPLATAAPTRHPIHIKDGDWNEFRRKLTFYLKTLENAQAQQTTLSLAIF",CD31 expressing cells,"DAY 8, factor ABSENT",0.5%
same,CD34 expressing cells,"DAY 8, factor ABSENT",1.0%
same,CD43 expressing cells,"DAY 8, factor ABSENT",0.3%
same,CD45 expressing cells,"DAY 8, factor ABSENT",0.2%
same,FLK-1 expressing cells,"DAY 8, factor ABSENT",1.5%
same,CD31 expressing cells,"DAY 8, factor PRESENT",1.0%
same,CD34 expressing cells,"DAY 8, factor PRESENT",1.3%
same,CD43 expressing cells,"DAY 8, factor PRESENT",1.4%
same,CD45 expressing cells,"DAY 8, factor PRESENT",0.2%
same,FLK-1 expressing cells,"DAY 8, factor PRESENT",2.3%
same,CD31 expressing cells,"DAY 12, factor ABSENT",1.6%
same,CD34 expressing cells,"DAY 12, factor ABSENT",2.0%
same,CD43 expressing cells,"DAY 12, factor ABSENT",1.4%
same,CD45 expressing cells,"DAY 12, factor ABSENT",1.3%
same,FLK-1 expressing cells,"DAY 12, factor ABSENT",0.6%
same,CD31 expressing cells,"DAY 12, factor PRESENT",2.4%
same,CD34 expressing cells,"DAY 12, factor PRESENT",2.3%
same,CD43 expressing cells,"DAY 12, factor PRESENT",3.0%
same,CD45 expressing cells,"DAY 12, factor PRESENT",2.7%
same,FLK-1 expressing cells,"DAY 12, factor PRESENT",0.4%
same,CD31 expressing cells,"DAY 17, factor ABSENT",1.8%
same,CD34 expressing cells,"DAY 17, factor ABSENT",2.5%
same,CD43 expressing cells,"DAY 17, factor ABSENT",1.4%
same,CD45 expressing cells,"DAY 17, factor ABSENT",1.0%
same,FLK-1 expressing cells,"DAY 17, factor ABSENT",1.2%
same,CD31 expressing cells,"DAY 17, factor PRESENT",11.2%
same,CD34 expressing cells,"DAY 17, factor PRESENT",2.4%
same,CD43 expressing cells,"DAY 17, factor PRESENT",12.1%
same,CD45 expressing cells,"DAY 17, factor PRESENT",12.2%
same,FLK-1 expressing cells,"DAY 17, factor PRESENT",2.4%
same,role during EB differentiation,"serum free hematopoietic differentiation, days 8, 12, 17",play a role during later stages of EB differentiation
